Laboratory results from publication PMC8448163 (Antimicrobial Agents and Chemotherapy, 2021).
Read-outs that look alike come from different tables or passages of the source.

Experiments:
EV-D68 isolates = test: microbe, parasite or virus in culture; assay type: cell-based; conditions: Enterovirus D, EVD68, read-out: EC50, range
rats = conditions: 14-day repeat oral dosing
EV-A71 isolates = test: microbe, parasite or virus in culture; assay type: cell-based; conditions: Enterovirus A, EVA71, read-out: EC50, range
[1] = day 14, GeoMean; for LI (linearity index) / RAUC (accumulation ratio for AUC) / RCmax (accumulation ratio for Cmax): fasted
dogs = conditions: 14-day repeat oral dosing

C#CC[C@@H](C(=O)N[C@H](/C=C/C(=O)OCC)C[C@@H]1CCNC1=O)n1cccc(NC(=O)c2cc(C)on2)c1=O [V-7404]
EC50 (EV-D68 isolates): 4 to 27 nM | tolerability (rats): well tolerated at all dose levels and produced no adverse effects | EC50 (EV-A71 isolates): 22 to 509 nM | LI (linearity index) ([1]; MAD cohort 1, 500 mg QD oral): 1.254 | RAUC (accumulation ratio for AUC) ([1]; MAD cohort 1, 500 mg QD oral): 1.258 | RCmax (accumulation ratio for Cmax) ([1]; MAD cohort 1, 500 mg QD oral): 1.499 | LI (linearity index) ([1]; MAD cohort 2, 1,000 mg QD oral): 0.869 | RAUC (accumulation ratio for AUC) ([1]; MAD cohort 2, 1,000 mg QD oral): 0.872 | RCmax (accumulation ratio for Cmax) ([1]; MAD cohort 2, 1,000 mg QD oral): 0.746 | LI (linearity index) ([1]; MAD cohort 3, 2,000 mg QD oral): 0.7707 | RAUC (accumulation ratio for AUC) ([1]; MAD cohort 3, 2,000 mg QD oral): 0.8168 | RCmax (accumulation ratio for Cmax) ([1]; MAD cohort 3, 2,000 mg QD oral): 0.8406 | RAUC ([1]; MAD cohort 4, 2,000 mg BID): 0.9987 | RCmax ([1]; MAD cohort 4, 2,000 mg BID): 0.9799 | tolerability (dogs): well tolerated at all dose levels and produced no adverse effects
